{
  "source": "patent US20150173370A1",
  "about": "“S[…] CONTROL FROM COMBINATIONS OF 2,4-D-CHOLINE, GLYPHOSATE, AND GLUFOSINATE” (Dow AgroSciences LLC, priority 2013, published 2015)",
  "system": "AAD12 Soybean (GLXMA)",
  "experiment": "Field trials, crop tolerance (% visual necrosis)",
  "assay_type": "in vivo, Glycine max L. (soybean)",
  "details": "2 DAA, 822 g ae/ha alone",
  "experimental": "Field trials were conducted under agricultural field conditions in multiple states in the United States, including but not limited to Arkansas, Iowa, Illinois, Indiana, Kansas, Minnesota, Mississippi, Missouri, New York, Tennessee and Wisconsin. Trials were established as RCB (randomized complete block) design, with 3-4 replicates per treatment, and plot sizes varying from 5-10 feet (ft) wide by 12-30 ft long. Treatments were applied with small plot backpack sprayers, using pressurized carbon dioxide (CO2) as propellant. Pressure varied from 17-52 pounds per square inch (psi), with spray tips typically of a Flat Fan type applying water diluent at 15 gallons per acre (GPA). Boom sizes varied from 5-11 ft in width. Treatments were applied to soybean, cotton, corn or fallow crop land. Weed sizes varied, but all treatments were applied as post-emergence treatments to weeds from 2 leaf to 2 tiller growth stages varying from 3 to 17 inches in height. The weed spectrum included, but was not limited to, Amaranthus palmeri S. Wats. (Palmer amaranth, AMAPA), Ambrosia trifida L. (giant ragweed, AMBTR), Conyza canadensis (L.) Cronq. (horseweed, ERICA) and Salsola tragus L. (Russian thistle, SASKR). […]\nHowever, the experiments described herein were performed such that active ingredients A and B were combined and only the efficacy of the combination was determined. […]",
  "data": [
    {"smiles": "CP(=O)(O)CCC(N)C(=O)O", "note": "(stereo not shown) [Glufosinate-Ammonium, ammonium (3-amino-3-carboxypropyl)(methyl)phosphinate]", "values": [
      {"measurement": "Mean % Visual Necrosis", "result": 21.3, "unit": "%"}
    ]}
  ]
}
